This note sets out measurements from patent US5846944A, “Purified SDG as an antioxidant” (priority 1997, dated 1998).

A short description of data set [1]: Body weight of hypercholesterolemic rabbits (Example 1). The following applies: 2 months; control diet without cholesterol; flaxseed 15% or SDG 15 mg/kg oral. Format: in vivo, New Zealand white rabbits. On the procedure: (§1) Experiments were carried out on six to eight week old female New Zealand white rabbits weighing between 1.8 and 2.0 kg. All procedures relating to the care and welfare of test animals within this experimental protocol conformed to a Standard Operating Procedure (SOP) approved by the Council on Animal Care, University of Saskatchewan, Saskatoon, Saskatchewan, Canada.
(§2) Blood samples for measurement of triglycerides (TG), total cholesterol (TC), low density lipoprotein cholesterol (LDL-C), very-low density lipoprotein cholesterol (VLDL-C), and high density lipoprotein cholesterol (HDL-C) were taken before the animals were assigned to the experimental diet (T=0), and after 1 (T=1) and 2 months (T=2) on the experimental diet. The rabbits were sacrificed under pentabarbital anesthesia at the end of 2 months. The aorta was removed for the assessment of atherosclerotic plaques.
Much has been made of the importance of the composition of certain dietary fats toward health, particularly in relation to the degree of saturation of the fatty acid composition of the triglycerides.

Data set [2] in a line: Body weight of hypercholesterolemic rabbits (Example 4). Format: in vivo, New Zealand White rabbits. The following applies: 2 months; + 1% cholesterol; SDG 5 mg/kg or SDG (89% pure) 11.24 mg/kg, orally daily. As to the method: as §1, §2
The experiments of Example 1 were repeated using a different group of rabbits and different dosages of SDG. One series of tests were conducted in which SDG in pure form was administered orally in a daily dosage of 5 mg/kg. Another series of tests were conducted in which the SDG was in the form of a crude extract containing 89% by weight of SDG as obtained by the process described in U.S. application Ser. No. 08/415,050.

As for `COc1cc(CC(COC2OC(CO)C(O)C(O)C2O)C(COC2OC(CO)C(O)C(O)C2O)Cc2ccc(O)c(OC)c2)ccc1O` (centres unmarked) [SDG, secoisolariciresinol diglucoside], the body weight is on record as 2.84 ± 0.05 kg in data set [1] and 2.58 ± 0.08 kg in data set [2].
